These are literature values, as cited in patent US7629342B2, “Azabicyclic heterocycles as cannabinoid receptor modulators” (Bristol-Myers Squibb Company, priority 2005, dated 2009).

For this data set the following is noted: chronic administration for two weeks.

`Cc1c(C(=O)NN2CCCCC2)nn(-c2ccc(Cl)cc2Cl)c1-c1ccc(I)cc1` [AM-251]: the adipose tissue mass entry was “decreased adipose tissue mass”.
